The results in this text go back to patent US4352810A, “1-Substituted hydroxyiminomethyl-pyridinium salts, with an activity against organophosphate poisonings” (dated 1982).

This assay concerns the target tabun-inhibited acetylcholinesterase (Bos taurus, UniProt P23795). Particulars: 10 μM; for kobs, velocity constant of the reactivation process: pH 7.5, 25° C. (Table B); for % react after 2h / % react, percentage reactivation after 24 hours (footnote a): pH 7.5, 25° C.; for % react after 2h: 2 hours (Table B); for % react, percentage reactivation after 24 hours (footnote a): 24 hours (Table B).

As for `ON=Cc1cccc[n+]1Cc1ccc(Cl)cc1`, the “kobs, velocity constant of the reactivation process” value (from here on “kobs, velocity constant”) was 2.33 ± 0.05 10^-3 min^-1 and the “% react after 2h” value came out at 19%.

With `C[N+](C)(C)c1ccc(C[n+]2ccccc2C=NO)cc1`, the “kobs, velocity constant” value is given as < 0.1 10^-3 min^-1 and the “% react, percentage reactivation after 24 hours (footnote a)” value (“% react, percentage reactivation” for short) is given as 5%.

Consider `ON=Cc1cccc[n+]1Cc1cnsc1`, for which the “kobs, velocity constant” value is given as 1.24 ± 0.04 10^-3 min^-1 and the “% react after 2h” value was 9%.

As for `ON=Cc1cccc[n+]1CCc1ccccc1`, the “kobs, velocity constant” value is on record as 0.60 ± 0.04 10^-3 min^-1 and the “% react after 2h” value is given as 3%.

For the molecule `ON=Cc1cccc[n+]1Cc1cccc(C(F)(F)F)c1`, the “kobs, velocity constant” value is on record as 0.69 ± 0.04 10^-3 min^-1 and the “% react after 2h” value amounted to 4%.

In the case of `ON=Cc1ccc[n+](Cc2ccccc2)c1`, the “kobs, velocity constant” value is on record as < 0.1 10^-3 min^-1 and the “% react, percentage reactivation” value was 1%.

Regarding `COc1ccc(C[n+]2ccccc2C=NO)cc1`, the “kobs, velocity constant” value was 0.44 ± 0.12 10^-3 min^-1 and the “% react after 2h” value is recorded as 2%.

For the molecule `O=[N+]([O-])c1ccc(C[n+]2ccccc2C=NO)cc1`, the “kobs, velocity constant” value is listed as 0.77 ± 0.04 10^-3 min^-1 and the “% react after 2h” value worked out at 5%.

Turning to `ON=Cc1cccc[n+]1Cc1cscn1`, the “kobs, velocity constant” value was 1.38 ± 0.03 10^-3 min^-1 and the “% react after 2h” value is 10%.

As to `ON=Cc1cccc[n+]1CC1=CCC=CC1`, the “kobs, velocity constant” value is given as 3.98 ± 0.07 10^-3 min^-1 and the “% react after 2h” value is on record as 33%.

On to `ON=Cc1cccc[n+]1Cc1ccsn1`, for which the “kobs, velocity constant” value was 7.5 ± 0.1 10^-3 min^-1 and the “% react after 2h” value worked out at 51%.

For the molecule `Cc1cccc(C[n+]2ccccc2C=NO)c1`, the “kobs, velocity constant” value is given as 2.72 ± 0.04 10^-3 min^-1 and the “% react after 2h” value was 23%.

For `ON=Cc1cccc[n+]1Cc1cccs1`, the “kobs, velocity constant” value is given as 4.78 ± 0.09 10^-3 min^-1 and the “% react after 2h” value is 38%.

Regarding `ON=Cc1cc[n+](Cc2c[nH]cn2)cc1`, the “kobs, velocity constant” value is < 0.1 10^-3 min^-1 and the “% react, percentage reactivation” value worked out at 2%.

As for `ON=Cc1cccc[n+]1Cc1ccco1`, the “kobs, velocity constant” value is 1.78 ± 0.06 10^-3 min^-1 and the “% react after 2h” value stood at 15%.

Consider `CC(c1ccccc1)[n+]1ccc(C=NO)cc1` (stereo not drawn), for which the “kobs, velocity constant” value is given as < 0.1 10^-3 min^-1 and the “% react, percentage reactivation” value came out at 4%.

On to `ON=Cc1cccc[n+]1Cc1cc(I)cc(I)c1`, for which the “kobs, velocity constant” value is reported as 1.62 ± 0.06 10^-3 min^-1 and the “% react after 2h” value was determined as 12%.

With `ON=Cc1cccc[n+]1Cc1ccc2ccccc2c1`, the “kobs, velocity constant” value is 1.39 ± 0.03 10^-3 min^-1 and the “% react after 2h” value is given as 11%.
